Earlier results on three compounds are cited in PMC7307925, “Human Serum Albumin Binding in a Vial: A Novel UV-pH Titration Method To Assist Drug Design” (Journal of Medicinal Chemistry, 2020).

Molecules are shown by their SMILES. Like-named read-outs stand apart in the source and are kept apart here.

The series has as its system human serum albumin (HSA). The note with it: 49 (SI ref 1,2), cited from earlier work.

For `CC(=O)N1CCN(c2ccc(OCC3COC(Cn4ccnc4)(c4ccc(Cl)cc4Cl)O3)cc2)CC1` (centres unmarked) [Ketoconazole], the “HSA% (HPLC), literature data” value is reported as 93.0%. In addition, the “HSA% (HPLC), literature data” value (listed as Ketoconazole 1) was 93%.

On to `CC1=C(CC(=O)O)c2cc(F)ccc2/C1=C\c1ccc([S+](C)[O-])cc1` (centres unmarked) [Sulindac], for which the “HSA% (HPLC), literature data” value is 92%. Besides, the “HSA% (HPLC), literature data” value (listed as sulindac) was 92.0%.

In the case of `CN1C(C(=O)Nc2ccccn2)=C(O)c2ccccc2S1(=O)=O` [Piroxicam], the “HSA% (HPLC), literature data” value is on record as 96.8%.
